12 compounds from publication PMC3445454, “Broad and Cross-Clade CD4^+ T-Cell Responses Elicited by a DNA Vaccine Encoding Highly Conserved and Promiscuous HIV-1 M-Group Consensus Peptides” (PLoS ONE, 2012) can be followed below.

Chains of the proteins cited; added tags and fusions are not shown. Residues count along the entry.
UniProt P01903, 26-254: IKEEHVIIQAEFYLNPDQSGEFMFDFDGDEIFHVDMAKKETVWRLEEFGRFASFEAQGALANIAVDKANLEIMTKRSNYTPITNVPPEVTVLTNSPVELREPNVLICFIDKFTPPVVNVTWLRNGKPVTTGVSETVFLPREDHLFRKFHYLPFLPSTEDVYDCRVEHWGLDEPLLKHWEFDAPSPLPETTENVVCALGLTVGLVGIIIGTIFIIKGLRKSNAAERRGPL
UniProt P01911, 30-266: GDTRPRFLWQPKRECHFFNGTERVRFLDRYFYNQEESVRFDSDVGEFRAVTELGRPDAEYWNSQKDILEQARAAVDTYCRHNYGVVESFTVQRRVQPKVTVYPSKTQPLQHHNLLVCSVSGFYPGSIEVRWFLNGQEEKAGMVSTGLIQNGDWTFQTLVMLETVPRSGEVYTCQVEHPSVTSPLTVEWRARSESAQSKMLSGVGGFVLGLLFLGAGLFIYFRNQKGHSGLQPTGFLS
UniProt P01920, 33-261: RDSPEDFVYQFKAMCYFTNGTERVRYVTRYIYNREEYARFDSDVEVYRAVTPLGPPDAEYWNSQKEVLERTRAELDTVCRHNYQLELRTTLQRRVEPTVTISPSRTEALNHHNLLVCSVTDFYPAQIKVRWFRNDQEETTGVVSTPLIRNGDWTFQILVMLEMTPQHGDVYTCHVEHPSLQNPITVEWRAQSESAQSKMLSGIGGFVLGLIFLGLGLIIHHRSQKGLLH
UniProt Q30154, 30-266: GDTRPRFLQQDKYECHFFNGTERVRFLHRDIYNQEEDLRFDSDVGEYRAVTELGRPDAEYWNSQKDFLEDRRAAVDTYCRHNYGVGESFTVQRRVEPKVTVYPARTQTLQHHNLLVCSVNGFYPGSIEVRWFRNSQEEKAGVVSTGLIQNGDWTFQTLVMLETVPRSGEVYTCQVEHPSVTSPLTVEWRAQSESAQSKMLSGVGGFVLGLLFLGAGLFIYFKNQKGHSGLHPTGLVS
UniProt P79483, 30-266: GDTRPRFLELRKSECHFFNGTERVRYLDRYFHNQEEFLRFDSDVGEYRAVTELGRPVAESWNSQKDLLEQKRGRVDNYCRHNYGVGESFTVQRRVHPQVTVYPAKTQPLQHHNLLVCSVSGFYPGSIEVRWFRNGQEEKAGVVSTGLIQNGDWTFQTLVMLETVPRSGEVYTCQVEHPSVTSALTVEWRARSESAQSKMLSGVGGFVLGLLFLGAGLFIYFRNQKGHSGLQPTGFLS

Like-named read-outs stand apart in the source and are kept apart here.

Holding throughout (assay): biochemical
Assay [1] addresses HLA-DR DRB1*15:01 (Homo sapiens, UniProt P01903+P01911). The assay is classed as binding.
Assay [2] concerns the target T1, HLA-DP DPA1*01:03/DPB1*04:01 (Homo sapiens, UniProt P04440+P20036).
T1 sequence (P20036 29-260): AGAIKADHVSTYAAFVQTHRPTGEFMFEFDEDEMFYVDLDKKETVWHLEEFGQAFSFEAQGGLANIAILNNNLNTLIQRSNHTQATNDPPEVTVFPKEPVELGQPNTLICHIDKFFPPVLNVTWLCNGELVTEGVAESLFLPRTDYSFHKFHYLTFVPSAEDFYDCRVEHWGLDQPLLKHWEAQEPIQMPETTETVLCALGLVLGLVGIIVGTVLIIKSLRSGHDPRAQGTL
T1 sequence (P04440 30-258): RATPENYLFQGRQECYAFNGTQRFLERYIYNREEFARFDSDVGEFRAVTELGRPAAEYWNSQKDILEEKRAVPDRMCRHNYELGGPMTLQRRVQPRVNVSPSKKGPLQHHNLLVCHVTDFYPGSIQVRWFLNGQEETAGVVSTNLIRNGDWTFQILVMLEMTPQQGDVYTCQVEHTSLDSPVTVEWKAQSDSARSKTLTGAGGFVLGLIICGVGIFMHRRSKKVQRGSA
It is filed as binding.

For assay [3], the target named is HLA-DQ DQA1*05:01/DQB1*03:01 (Homo sapiens, UniProt P01909+P01920).
The target in assay [4] is HLA-DR DRB5*01:01 (Homo sapiens, UniProt P01903+Q30154). It is filed as binding.
In assay [5] the target is HLA-DR DRB3*01:01 (Homo sapiens, UniProt P01903+P79483). It is filed as binding.

Regarding `CSCC[C@H](NC(=O)[C@@H]1CCCN1C(=O)[C@H](CCCNC(=N)N)NC(=O)[C@H](CC(C)C)NC(=O)[C@@H]1CCCN1C(=O)[C@@H](NC(=O)[C@H](CCC(N)=O)NC(=O)[C@@H]1CCCN1C(=O)[C@H](CCCNC(=N)N)NC(=O)[C@@H](NC(=O)[C@@H]1CCCN1C(=O)[C@H](Cc1ccccc1)NC(=O)CN)C(C)C)C(C)C)C(=O)N[C@H](C(=O)N[C@@H](Cc1ccc(O)cc1)C(=O)N[C@@H](CCCCN)C(=O)NCC(=O)N[C@@H](C)C(=O)N[C@@H](Cc1ccccc1)C(=O)N[C@@H](CC(=O)O)C(=O)N[C@@H](CC(C)C)C(N)=O)[C@@H](C)O` [nef(67-87)], the figures for the IC50 in assay [1], in assay [2] and in assay [3] were 0.303 µM, 1.51 µM and 4.34 µM, respectively.

With `CC[C@H](C)[C@H](NC(=O)[C@H](C)NC(=O)[C@H](CCC(N)=O)NC(=O)[C@H](Cc1c[nH]cn1)NC(=O)[C@@H](NC(=O)[C@H](CCSC)NC(=O)[C@H](CCC(N)=O)NC(=O)CNC(=O)[C@H](CCC(N)=O)NC(=O)[C@H](CC(C)C)NC(=O)[C@H](CC(N)=O)NC(=O)[C@H](CCC(N)=O)NC(=O)[C@@H](NC(=O)[C@@H](NC(=O)[C@@H]1CCCN1C(=O)[C@H](Cc1ccc(O)cc1)NC(=O)[C@@H](N)CC(N)=O)[C@@H](C)CC)C(C)C)C(C)C)C(=O)N[C@@H](CO)C(=O)N1CCC[C@H]1C(=O)N[C@@H](CCCNC(=N)N)C(N)=O` [p17(131-132)/p24(1-18)], the IC50 in assay [4] (read-out: Binding capacity/IC50 (nM) DRB5*01:01) worked out at 547 nM; in assay [3], 3.35 µM.

Consider `CC[C@H](C)[C@H](NC(=O)[C@@H](NC(=O)[C@H](CCC(=O)O)NC(=O)[C@@H]1CCCN1C(=O)[C@@H](N)CO)C(C)C)C(=O)N1CCC[C@H]1C(=O)N[C@@H](CCSC)C(=O)N[C@@H](Cc1ccccc1)C(=O)N[C@@H](CO)C(=O)N[C@@H](C)C(=O)N[C@@H](CC(C)C)C(=O)N[C@@H](CO)C(=O)N[C@@H](CCC(=O)O)C(=O)NCC(=O)N[C@@H](C)C(=O)N[C@H](C(N)=O)[C@@H](C)O` [p24(33-48)], for which the IC50 in assay [5] was 8.78 µM; in assay [4] it was 112 nM; in assay [2], 4.15 µM; in assay [3], 0.863 µM.

For `CC[C@H](C)[C@H](NC(=O)[C@H](CCC(=O)O)NC(=O)CN)C(=O)N[C@@H](Cc1ccc(O)cc1)C(=O)N[C@@H](CCCCN)C(=O)N[C@@H](CCCNC(=N)N)C(=O)N[C@@H](Cc1c[nH]c2ccccc12)C(=O)N[C@H](C(=O)N[C@H](C(=O)N[C@@H](CC(C)C)C(=O)NCC(=O)N[C@@H](CC(C)C)C(=O)N[C@@H](CC(N)=O)C(=O)N[C@@H](CCCCN)C(=O)N[C@H](C(=O)N[C@H](C(=O)N[C@@H](CCCNC(=N)N)C(=O)N[C@@H](CCSC)C(=O)N[C@@H](Cc1ccc(O)cc1)C(N)=O)C(C)C)[C@@H](C)CC)[C@@H](C)CC)[C@@H](C)CC` [p24(127-145)], the IC50 stood at 0.017 µM in assay [1], 0.333 µM in assay [5], 3.15 µM in assay [2] and 6.23 µM in assay [3].

In turn, `CC[C@H](C)[C@H](NC(=O)[C@H](CC(=O)O)NC(=O)[C@H](CC(C)C)NC(=O)[C@@H](NC(=O)[C@H](CO)NC(=O)[C@@H](NC(=O)[C@@H]1CCCN1C(=O)[C@H](CO)NC(=O)[C@H](Cc1ccc(O)cc1)NC(=O)[C@H](CCSC)NC(=O)[C@H](CCCNC(=N)N)NC(=O)[C@@H](NC(=O)[C@@H](NC(=O)[C@H](CCCCN)NC(=O)[C@H](CC(N)=O)NC(=O)[C@@H](N)CC(C)C)[C@@H](C)CC)C(C)C)C(C)C)[C@@H](C)CC)C(N)=O` [p24(138-153)] displayed an IC50 in assay [3] of 7.05 µM.

As to `CC[C@H](C)[C@H](NC(=O)[C@H](C)NC(=O)[C@H](CCCCN)NC(=O)[C@H](CCCCN)NC(=O)CNC(=O)[C@H](CS)NC(=O)[C@@H](NC(=O)[C@H](CCC(=O)O)NC(=O)[C@@H](NC(=O)[C@H](CC(C)C)NC(=O)[C@@H](NC(=O)[C@H](CCC(N)=O)NC(=O)[C@H](CC(=O)O)NC(=O)[C@H](Cc1ccc(O)cc1)NC(=O)[C@H](CCC(N)=O)NC(=O)[C@H](CCCNC(=N)N)NC(=O)[C@@H](NC(=O)[C@H](CCCCN)NC(=O)[C@@H](NC(=O)[C@@H](N)Cc1ccccc1)[C@@H](C)CC)C(C)C)[C@@H](C)CC)[C@@H](C)CC)[C@@H](C)CC)C(=O)NCC(=O)N[C@H](C(=O)N[C@H](C(N)=O)C(C)C)[C@@H](C)O` [protease(53-75)], in assay [3], the IC50 turned out to be 4.43 µM.

In assay [3], `CC[C@H](C)[C@H](NC(=O)[C@H](CCCCN)NC(=O)[C@@H](NC(=O)[C@@H](NC(=O)[C@H](CCCNC(=N)N)NC(=O)[C@@H](NC(=O)[C@H](C)NC(=O)[C@H](CCCCN)NC(=O)[C@H](CC(C)C)NC(=O)[C@H](CC(C)C)NC(=O)[C@H](CCC(=O)O)NC(=O)[C@H](CCC(=O)O)NC(=O)[C@@H](N)CC(=O)O)C(C)C)[C@@H](C)CC)[C@@H](C)CC)C(=O)N[C@@H](CC(C)C)C(=O)N[C@@H](Cc1ccc(O)cc1)C(=O)N[C@@H](CCC(N)=O)C(=O)N[C@@H](CO)C(=O)N[C@@H](CC(N)=O)C(=O)N1CCC[C@H]1C(N)=O` [rev(9-27)] yielded an IC50 of 1.96 µM.

In turn, `CC[C@H](C)[C@H](NC(=O)[C@H](CCSC)NC(=O)[C@@H](NC(=O)[C@H](CCC(N)=O)NC(=O)[C@H](Cc1c[nH]c2ccccc12)NC(=O)[C@H](CCCNC(=N)N)NC(=O)[C@H](CC(N)=O)NC(=O)[C@H](CCC(=O)O)NC(=O)[C@@H](N)CCSC)C(C)C)C(=O)N[C@H](C(=O)N[C@@H](Cc1c[nH]c2ccccc12)C(=O)N[C@@H](CCC(N)=O)C(=O)N[C@H](C(=O)N[C@@H](CC(=O)O)C(=O)N[C@@H](CCCNC(=N)N)C(N)=O)C(C)C)C(C)C` [vif(1-15)] returned an IC50 in assay [3] of 6.84 µM.

`CC[C@H](C)[C@H](NC(=O)[C@H](CC(C)C)NC(=O)[C@H](C)NC(=O)[C@@H](NC(=O)[C@H](CC(C)C)NC(=O)[C@H](C)NC(=O)[C@H](CC(C)C)NC(=O)[C@H](Cc1ccc(O)cc1)NC(=O)[C@H](CCC(N)=O)NC(=O)[C@H](CC(C)C)NC(=O)[C@H](CO)NC(=O)CNC(=O)[C@@H](N)C(C)C)[C@@H](C)O)C(=O)N[C@H](C(=O)N1CCC[C@H]1C(=O)N[C@@H](CCCCN)C(=O)N[C@@H](CCCCN)C(N)=O)[C@@H](C)O` [vif(142-158)] yielded an IC50 in assay [3] of 2.78 µM.

For the compound `CC(C)C[C@H](NC(=O)CNC(=O)[C@H](Cc1c[nH]cn1)NC(=O)[C@H](CC(C)C)NC(=O)[C@H](Cc1c[nH]c2ccccc12)NC(=O)[C@@H]1CCCN1C(=O)[C@H](CCCNC(=N)N)NC(=O)[C@@H]1CCCN1C(=O)[C@H](Cc1ccccc1)NC(=O)[C@H](Cc1c[nH]cn1)NC(=O)[C@H](CCCNC(=N)N)NC(=O)[C@@H](NC(=O)[C@H](C)NC(=O)[C@@H](N)CCC(=O)O)C(C)C)C(N)=O` [vpr(29-42)], the IC50 in assay [3] was greater than 30 µM.

`CC[C@H](C)[C@H](NC(=O)[C@H](C)NC(=O)[C@@H](N)CCC(=O)O)C(=O)N[C@H](C(=O)N[C@@H](CCCNC(=N)N)C(=O)N[C@H](C(=O)N[C@@H](CC(C)C)C(=O)N[C@@H](CCC(N)=O)C(=O)N[C@@H](CCC(N)=O)C(=O)N[C@@H](CC(C)C)C(=O)N[C@@H](CC(C)C)C(=O)N[C@@H](Cc1ccccc1)C(=O)N[C@H](C(=O)N[C@@H](Cc1c[nH]cn1)C(=O)N[C@@H](Cc1ccccc1)C(=O)N[C@@H](CCCNC(=N)N)C(=O)N[C@H](C(=O)NCC(=O)N[C@@H](CS)C(=O)N[C@@H](CCC(N)=O)C(=O)N[C@@H](Cc1c[nH]cn1)C(=O)N[C@@H](CO)C(=O)N[C@@H](CCCNC(=N)N)C(N)=O)[C@@H](C)CC)[C@@H](C)CC)[C@@H](C)CC)[C@@H](C)CC` [vpr(58-80)] came in with an IC50 in assay [3] of 4.39 µM.

Turning to `CC[C@H](C)[C@H](N)C(=O)N[C@H](C(=O)N[C@@H](C)C(=O)N[C@@H](CC(C)C)C(=O)N[C@H](C(=O)N[C@H](C(=O)N[C@@H](C)C(=O)N[C@H](C(=O)N[C@H](C(=O)N[C@H](C(=O)N[C@@H](Cc1c[nH]c2ccccc12)C(=O)N[C@H](C(=O)N[C@H](C(=O)N[C@H](C(N)=O)C(C)C)[C@@H](C)CC)[C@@H](C)O)C(C)C)C(C)C)[C@@H](C)CC)[C@@H](C)CC)[C@@H](C)CC)C(C)C` [vpu(13-26)], the IC50 in assay [3] is greater than 30 µM.
